# Where two headings read alike, the source gives them in different places.
# Protein sequences, listed by entry. Tags and fused reporters are not part of them.
# UniProt Q99640, whole entry: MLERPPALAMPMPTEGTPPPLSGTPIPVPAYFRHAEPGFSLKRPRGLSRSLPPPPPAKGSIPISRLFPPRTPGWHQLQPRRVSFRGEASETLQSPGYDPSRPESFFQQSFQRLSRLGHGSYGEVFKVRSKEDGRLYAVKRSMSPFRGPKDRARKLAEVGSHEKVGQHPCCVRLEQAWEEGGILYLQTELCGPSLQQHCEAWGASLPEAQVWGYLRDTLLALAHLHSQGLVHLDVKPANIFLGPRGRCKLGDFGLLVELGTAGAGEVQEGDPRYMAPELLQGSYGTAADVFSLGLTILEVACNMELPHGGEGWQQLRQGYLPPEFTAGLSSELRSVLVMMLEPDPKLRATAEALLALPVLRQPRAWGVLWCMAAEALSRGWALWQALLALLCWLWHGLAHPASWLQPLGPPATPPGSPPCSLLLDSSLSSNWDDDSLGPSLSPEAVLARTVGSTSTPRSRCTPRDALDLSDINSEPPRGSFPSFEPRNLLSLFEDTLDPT
# Legend:
# PKMYT1 enzyme = PKMYT1 enzyme (Homo sapiens, UniProt Q99640); test: PKMYT1 enzyme inhibition activity, ADP-GLO method; type: biochemical; conditions: read-out: ADP-GLO IC50, PKMYT1 enzyme 10 nM, ATP 5 µM, 37°C 90 minutes
# HCC1569 cells = test: Cytostatic activity, CTG assay (HCC1569); conditions: 5 days
# [1] = tested form: free base, mixture of the atropisomers s
# [2] = tested form: free base, single atropisomer, dextrorot
IC50 (PKMYT1 enzyme; tested form: free base) [nM],IC50 (PKMYT1 enzyme) [nM],SMILES,further results
,172,Cc1cc2c(C(N)=O)c(N)n(-c3c(C)c(O)cc(F)c3C)c2nc1C1CC1,
,31.4,Cc1nc2c(cc1-c1ccccc1)c(C(N)=O)c(N)n2-c1c(C)c(O)cc(F)c1C,
,3.71,C=Cc1cnc2c(c1)c(C(N)=O)c(N)n2-c1c(C)c(O)cc(F)c1C,IC50 (HCC1569 cells): 24 nM
,1.94,COc1cnc2c(c1)c(C(N)=O)c(N)n2-c1c(C)c(O)cc(F)c1C,IC50 (HCC1569 cells): 42 nM
12.8,,Cc1cc(F)c(O)c(C)c1-n1c(N)c(C(N)=O)c2cc(F)c(C)nc21,

# More lines, now with the values behind:
SMILES,IC50 (PKMYT1 enzyme; tested form: free base) [nM],IC50 (PKMYT1 enzyme) [nM],further results
Cc1cc(F)c(O)c(C)c1-n1c(N)c(C(N)=O)c2c(C)c3c(nc21)CCC3,214,,
Cc1nc2c(cc1Cl)c(C(N)=O)c(N)n2-c1c(C)c(O)cc(F)c1C,,,"IC50 (PKMYT1 enzyme; [1]): 3.02 nM; IC50 (PKMYT1 enzyme; [2]): 1.78 nM; IC50 (PKMYT1 enzyme; tested form: free base, single atropisomer, levorotat): 184 nM; IC50 (HCC1569 cells; [1]): 23 nM; IC50 (HCC1569 cells; [2]): 15 nM"
Cc1ccc(O)c(C)c1-n1c(N)c(C(N)=O)c2cc(NS(=O)(=O)N(C)C)c(C)nc21,,,"IC50 (PKMYT1 enzyme; tested form: free base, axial configuration not given): 12.6 nM"
[2H]C([2H])([2H])c1cc2c(C(N)=O)c(N)n(-c3c(C)cc(F)c(O)c3C)c2nc1C,4.42,,
Cc1nc2c(cc1-c1ccnn1C)c(C(N)=O)c(N)n2-c1c(C)c(O)cc(F)c1C,,26.4,IC50 (HCC1569 cells): 65 nM
[2H]C([2H])([2H])c1nc2c(cc1C(F)(F)F)c(C(N)=O)c(N)n2-c1c(C)cc(F)c(O)c1C([2H])([2H])[2H],12.5,,
Cc1nc2c(cc1-c1cncs1)c(C(N)=O)c(N)n2-c1c(C)c(O)cc(F)c1C,7.37,,IC50 (HCC1569 cells; tested form: free base): 19 nM
[2H]C([2H])([2H])c1nc2c(cc1Br)c(C(N)=O)c(N)n2-c1c(C)cc(F)c(O)c1C,2.86,,"IC50 (PKMYT1 enzyme; tested form: free base, (+)-atropisomer): 1.8 nM"
[2H]C([2H])([2H])c1cc(F)c(O)c(C([2H])([2H])[2H])c1-n1c(N)c(C(N)=O)c2cc(Br)c(C([2H])([2H])[2H])nc21,4.7,,

# Source: patent EP4624471A1, “PKMYT1 INHIBITOR, PREPARATION METHOD THEREFOR, AND PHARMACEUTICAL COMPOSITION AND USE THEREOF” (Shanghai Qilu Pharmaceutical Research and Development …, priority 2022, dated 2024)
